According to US7083777B1, “Immunomodulating polymers” (priority 1999, dated 2006):

Test system: B. fragilis
Test: Protection against abscess formation by recombinant cytokine given intracardially at challenge
Type: in vivo, rat
[1] = 100 pg intracardiac at time of challenge, 10^8 cfu B. fragilis, Experiment A

Substance: IL-2: recombinant interleukin 2
- Abscess formation (%) (10 pg, Experiment B): 60%
- No. animals with abscess/total (10 pg, Experiment B): 6/10
- Abscess formation (%) [1]: 27%
- No. animals with abscess/total [1]: 10/37
- Abscess formation (%) (100 pg, Experiment B): 12.5%
- No. animals with abscess/total (100 pg, Experiment B): 1/8
- Abscess formation (%) (1000 pg, Experiment B): 25%
- No. animals with abscess/total (1000 pg, Experiment B): 2/8
- Protection against abscess formation (in words) (1000, 100 and 10 pg): dose-dependent manner
